In patent EP0367895A1, “Pyrimidinyl-substituted hydroxyacids, lactones and esters and pharmaceutical compositions containing them” (SANDOZ AG, priority 1988, dated 1990) one finds IC50 data, which are given here for one substance.

The experiment deals with T1, 3-hydroxy-3-methylglutaryl coenzyme A (HMG-CoA) reductase (Rattus norvegicus, UniProt P51639).
T1 construct: In vitro microsomal assay of; from tissue; host or cells: Microsomes; it is liver according to own knowledge of EP 114 027
T1 sequence (P51639 1-887): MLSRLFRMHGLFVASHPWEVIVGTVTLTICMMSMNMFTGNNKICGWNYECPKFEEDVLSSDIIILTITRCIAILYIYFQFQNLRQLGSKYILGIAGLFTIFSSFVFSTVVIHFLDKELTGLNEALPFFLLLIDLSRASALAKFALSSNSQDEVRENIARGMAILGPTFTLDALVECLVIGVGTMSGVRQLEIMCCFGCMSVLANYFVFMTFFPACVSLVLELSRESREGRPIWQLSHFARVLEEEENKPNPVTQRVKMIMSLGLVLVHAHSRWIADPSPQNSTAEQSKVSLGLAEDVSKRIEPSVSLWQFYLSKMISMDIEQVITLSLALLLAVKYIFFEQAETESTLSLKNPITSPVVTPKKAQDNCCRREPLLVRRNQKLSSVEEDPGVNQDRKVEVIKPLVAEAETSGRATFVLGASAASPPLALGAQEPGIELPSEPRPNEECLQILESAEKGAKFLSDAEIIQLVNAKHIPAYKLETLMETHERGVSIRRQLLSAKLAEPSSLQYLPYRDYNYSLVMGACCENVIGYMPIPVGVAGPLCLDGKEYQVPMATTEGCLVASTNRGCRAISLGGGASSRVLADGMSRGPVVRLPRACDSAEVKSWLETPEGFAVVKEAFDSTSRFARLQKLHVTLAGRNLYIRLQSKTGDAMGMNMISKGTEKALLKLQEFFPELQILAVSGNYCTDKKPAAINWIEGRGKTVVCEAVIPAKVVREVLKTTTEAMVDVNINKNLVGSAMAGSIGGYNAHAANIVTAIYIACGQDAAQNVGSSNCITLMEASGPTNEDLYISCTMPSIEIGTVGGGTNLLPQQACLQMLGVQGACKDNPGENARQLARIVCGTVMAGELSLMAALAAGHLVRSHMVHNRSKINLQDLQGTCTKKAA
The experiment can be described thus: Test A: in vitro microsomal assay of HMG-CoA reductase inhibition (as described in EP 114 027). The format is biochemical. The conditions noted are these: concentration calculated to produce a 50% inhibition of HMG-CoA reductase activity; tests run between 0.05 µM and 1000 µM; read-out: IC₅₀. As to the method: Test A. In vitro microsomal assay of 3-hydroxy-3-methylglutaryl coenzyme A (HMG-CoA) reductase inhibition: as described in EP 114 027:
IC₅₀ is the concentration of the test substance in the assay system calculated to produce a 50% inhibition of HMG-CoA reductase activity. The tests are run at concentrations of test substance between 0.05 µM and 1000 µM.

Mevinolin [reference compound]: the IC50 was 352 nM.
